Patent publication US11179348B2, “Combination comprising pterostilbene for the treatment of cancer” (FUNDACIÓN UNIVERSIDAD CATÓLICA DE VALENCIA SAN VICENTE …, priority 2015, dated 2021)

Tested on: A2058 cells isolated from tumor-bearing mice
Assay: Chemosensitization of cultured A2058 cells isolated from xenografts
Assay type: cell-based, human
Conditions: isolated A2058 cells without in vivo Pter treatment; culture time 72 h
Protocol: FIG. 5. Chemosensitization effect of GSH depletion (A) or sod1-AS (B) in melanoma cells isolated from Pter-treated mice. Melanoma cells were cultured as in FIG. 1C. PAC.PBP (100 ng/ml) was added to the culture flasks 24 h after seeding. DEM (0.1 mM) was added 6 h later, whereas sod1-AS (10 mM) were added 12 h after seeding [complexation with lipofectamine 2000 (Invitrogen) was used to facilitate sod1-AS uptake by the cells]. Data are mean values±SD for 5-6 different experiments (*p<0.01, comparing all experimental conditions vs controls).
FIGS. 18-25. Effect of piperlongumine and I-BET762, as GSH depleting and chemosensitizing agents, in in vitro growing human melanoma, pancreatic, breast, lung, liver, prostate, ovarian, and colorectal cancer cells. Cancer cells, isolated from Pter-treated tumor-bearing mice, were cultured as indicated under Methods. […]
Human A2058, MeWo and MelJuso melanoma cells, and mouse AtT-20 pituitary corticotroph tumor cells were from the American Type Culture Collection (ATCC). […] Cell numbers were determined using a Coulter Counter (Coulter Electronic Inc., Miami, Fla.). […] Cellular viability was assessed as previously reported (Mena, S. et al. Clin Cancer Res 13, 2658-2666 (2007)), by measuring trypan blue exclusion and leakage of lactate dehydrogenase activity. […]

Substance: Diethylmaleate [DEM]
- Cell viability: 96 ± 2%
